As for `COc1cc(NS(C)(=O)=O)ccc1Nc1c2ccccc2nc2ccccc12` [sulfate, reference compound], the “Water-solubility (in words)” value is listed as “only slightly soluble in water”.

For the origin of these results see patent US4335244A, “Monolactate salts of 4'-(9-acridinylamino)methanesulfon-m-anisidide” (Bristol-Myers Company, priority 1980, dated 1982).
